Measurements published in patent US6638943B2 (The University of Tennessee Research Foundation, priority 2001, dated 2003).
Like-named read-outs stand apart in the source and are kept apart here.

Sequences of proteins named here, by UniProt entry; tags and fusion partners are left off.
UniProt P08913, whole entry: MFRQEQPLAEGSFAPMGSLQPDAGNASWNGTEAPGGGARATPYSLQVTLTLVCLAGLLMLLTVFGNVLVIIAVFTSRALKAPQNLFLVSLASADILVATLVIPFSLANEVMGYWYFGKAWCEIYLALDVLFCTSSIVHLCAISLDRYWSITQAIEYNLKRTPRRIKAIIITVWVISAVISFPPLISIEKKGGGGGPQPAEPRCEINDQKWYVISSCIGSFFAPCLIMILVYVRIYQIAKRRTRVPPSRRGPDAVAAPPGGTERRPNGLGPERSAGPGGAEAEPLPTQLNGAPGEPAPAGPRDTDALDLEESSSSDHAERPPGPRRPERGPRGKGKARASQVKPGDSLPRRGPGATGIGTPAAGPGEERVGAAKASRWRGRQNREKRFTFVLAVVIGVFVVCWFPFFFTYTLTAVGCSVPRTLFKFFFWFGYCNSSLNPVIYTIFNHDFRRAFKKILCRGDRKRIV
UniProt P18825, whole entry: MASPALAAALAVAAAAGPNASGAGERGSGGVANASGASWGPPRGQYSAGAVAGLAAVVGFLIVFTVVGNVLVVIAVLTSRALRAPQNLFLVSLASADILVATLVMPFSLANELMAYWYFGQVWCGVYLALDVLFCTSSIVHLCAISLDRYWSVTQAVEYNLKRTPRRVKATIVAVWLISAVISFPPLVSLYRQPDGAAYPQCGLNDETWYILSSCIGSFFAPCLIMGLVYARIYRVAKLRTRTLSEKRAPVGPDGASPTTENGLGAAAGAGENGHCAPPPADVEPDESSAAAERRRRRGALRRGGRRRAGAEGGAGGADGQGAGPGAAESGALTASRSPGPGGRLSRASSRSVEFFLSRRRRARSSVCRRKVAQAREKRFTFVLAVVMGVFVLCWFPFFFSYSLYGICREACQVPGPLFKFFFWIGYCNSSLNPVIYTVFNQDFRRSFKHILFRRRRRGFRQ
UniProt P18089, whole entry: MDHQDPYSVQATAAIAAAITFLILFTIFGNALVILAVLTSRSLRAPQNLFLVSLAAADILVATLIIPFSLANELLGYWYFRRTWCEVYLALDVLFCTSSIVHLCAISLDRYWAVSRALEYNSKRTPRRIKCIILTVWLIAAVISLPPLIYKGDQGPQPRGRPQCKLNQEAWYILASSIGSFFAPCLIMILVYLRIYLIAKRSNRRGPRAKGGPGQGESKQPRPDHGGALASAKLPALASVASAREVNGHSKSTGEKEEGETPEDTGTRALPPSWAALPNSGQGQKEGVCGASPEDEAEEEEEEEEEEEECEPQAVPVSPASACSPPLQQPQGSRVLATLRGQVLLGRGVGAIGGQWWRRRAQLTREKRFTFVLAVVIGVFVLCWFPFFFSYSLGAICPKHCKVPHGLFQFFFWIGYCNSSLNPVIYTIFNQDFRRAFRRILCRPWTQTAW

Assays:
human α2a-AR = biological target: T1, human α2a-AR (Homo sapiens, UniProt P08913); test: [3H]Rauwolscine equilibrium competition binding, human α2a-AR expressed in CHO cells; conditions: Table 1, ratio of Ki values
T1 construct: expressed in transfected cells

human α2c-AR = biological target: T2, human α2c-AR (Homo sapiens, UniProt P18825); test: [3H]Rauwolscine equilibrium competition binding, human α2c-AR expressed in CHO cells; conditions: summary of Table 2
T2 construct: expressed in transfected cells

human α2b-AR = biological target: T3, human α2b-AR (Homo sapiens, UniProt P18089); test: [3H]Rauwolscine equilibrium competition binding, human α2b-AR expressed in CHO cells
T3 construct: expressed in transfected cells

[1] = human α2b-AR in CHO cells, [3H]rauwolscine 2.54 nM, mean ± SEM of four to nine experiments, read-out: Ki = SEM (nM) α2b-AR
[2] = read-out: pKi α2b-AR (converted)

α2a/α2b Selectivity = Ki(α2b)/Ki(α2a) (human α2a-AR) | selectivity for the human α2c-AR subtype (in words) (human α2c-AR) | Ki (human α2b-AR; [1]) | Ki (human α2b-AR; [2]) | Structure (SMILES)
57.2 | potent and selective ligands | – | – | O=C(NCCNC(=O)[C@@H]1[C@H]2C[C@H]3c4[nH]c5ccccc5c4CCN3C[C@@H]2CC[C@@H]1O)[C@@H]1[C@H]2C[C@H]3c4[nH]c5ccccc5c4CCN3C[C@@H]2CC[C@@H]1O [Compound 3a]
12.3 | potent and selective ligands | – | – | O=C(NCCCCNC(=O)[C@@H]1[C@H]2C[C@H]3c4[nH]c5ccccc5c4CCN3C[C@@H]2CC[C@@H]1O)[C@@H]1[C@H]2C[C@H]3c4[nH]c5ccccc5c4CCN3C[C@@H]2CC[C@@H]1O [Compound 3c]
77.6 | – | 134 ± 38.1 nM | 282 nM | O=C(NCCCCCNC(=O)[C@@H]1[C@H]2C[C@H]3c4[nH]c5ccccc5c4CCN3C[C@@H]2CC[C@@H]1O)[C@@H]1[C@H]2C[C@H]3c4[nH]c5ccccc5c4CCN3C[C@@H]2CC[C@@H]1O [Compound 3d]
123.1 | – | – | – | O=C(NCCCCCCNC(=O)[C@@H]1[C@H]2C[C@H]3c4[nH]c5ccccc5c4CCN3C[C@@H]2CC[C@@H]1O)[C@@H]1[C@H]2C[C@H]3c4[nH]c5ccccc5c4CCN3C[C@@H]2CC[C@@H]1O [Compound 3e]
31.7 | – | 27.6 ± 4 nM | 57.5 nM | O=C(NCCCCCCCNC(=O)[C@@H]1[C@H]2C[C@H]3c4[nH]c5ccccc5c4CCN3C[C@@H]2CC[C@@H]1O)[C@@H]1[C@H]2C[C@H]3c4[nH]c5ccccc5c4CCN3C[C@@H]2CC[C@@H]1O [Compound 3f]
